According to patent publication US8101777B2, “Ionic liquids based on imidazolium salts incorporating a nitrile functionality” (Ecole Polytechnique Federale de Lausanne, priority 2003, dated 2012):

Assay: Solubility in common solvents

CCCCn1cc[n+](C)c1.F[B-](F)(F)F [[C4mim][BF4], 1-methyl-3-butylimidazolium tetrafluoroborate, reference compound]
Solubility in common solvents: Hexane: immiscible
